Publication PMC2852246 (Journal of nuclear medicine : official publication, Society …, 2010)

Assays:
[1] = Sprague-Dawley rats; cited from earlier work
[2] = Plasma protein binding by ultracentrifugation; type: in vitro ADME, human; settings: healthy volunteers, mean ± SD
[3] = cited from earlier work
[4] = Renal imaging and renogram parameters
[5] = Plasma clearance in healthy volunteers, single-injection two-compartment model; type: in vivo, human; settings: this study
[6] = healthy volunteers, equation developed for 99mTc-MAG3
[7] = blood pressure, heart rate, temperature, blood cell count, chemistry panel, urine analysis; coinjected with 131I-OIH
[8] = Percentage injected dose in the urine of healthy volunteers
[9] = Percentage uptake in erythrocytes; type: in vitro ADME, human; settings: healthy volunteers, no correction for trapped plasma, mean ± SD
[10] = cortical (parenchymal) region of interest, left kidney, n = 9
[11] = cortical (parenchymal) region of interest, right kidney, n = 9
[12] = whole-kidney region of interest, n = 9, mean (SD)
[13] = whole-kidney region of interest, relative uptake, n = 9, mean (SD)

In the case of “^99mTc(CO)3-nitrilotriacetic acid [^99mTc(CO)3(NTA)]”, the “pharmacokinetics in rats compared with 131I-OIH” value [1] is given as “essentially identical to those of ^131I ortho-iodohippuran”, the plasma protein binding [2] is given as 43 ± 5% and the “stability of the complex” value [3] is given as “stable complex”. The “Left cortical TTP” value [4, 10] was 2.52 ± 0.51 min, the “Left cortical TTP (min)” value [4, 10] was 2.52 (0.51) min and the “Right cortical TTP” value [4, 11] was 2.60 ± 0.60 min. The “Right cortical TTP (min)” value [4, 11] was 2.6 (0.6) min, the “cortical 20 min/max” value ([4]; healthy volunteers, kidney side not specified) was 0.13 and the “Left kidney 20 min/max” value ([4]; whole-kidney region of interest, 20 min-to-maximum count ratio, n = 9, mean (SD)) was 0.15 (0.04). For the same substance, the “Right kidney 20 min/max” value [4, 12] was 0.16 (0.04), the “Right kidney TTP (min)” value [4, 12] was 3.4 (1.9) min and the “Left kidney Uptake %” value [4, 13] was 49.8 ± 3.4% and 49.8 (3.4) %. For the same substance, the “Right kidney Uptake %” value [4, 13] was 50.2 (3.4) %, the “Left kidney TTP (min)” value ([4]; whole-kidney region of interest, time to peak of renogram, n = 9, mean (SD)) was 3.3 (1.6) min and the “plasma clearance as percentage of the 131I-OIH clearance” value [5] was 100%. For the same substance, the camera-based clearance [6] was 456 ± 130 mL/min/1.73 m^2, the toxicity in volunteers [7] was “no evidence of any toxicity” and the “percent injected dose in the urine at 30 min” value ([8]; 30 min after injection) was 69 ± 9%. For the same substance, the “percent injected dose in the urine at 180 min (3 h)” value ([8]; 180 min after injection) was 91 ± 4% and the red cell uptake [9] was 9 ± 6%.

Several values for one entry are separate records, joined by “and”; a condition that tells them apart may be missing. Equal values may be shown once.
